Consider one substance from patent US20050008616A1, “Recombinant human interferon-beta-1b polypeptides” (Schering Aktiengesellschaft, priority 2003, published 2005).

The conditions of data set [1]: relative to IFN-β-1b; literature; cited from earlier work.
Data set [2] can be described thus: IFN-β specific activity, assay not stated.
For the next data set, the system named is MxA gene. The experiment in a line: MxA gene induction assay (ICLA). It is filed as cell-based, human. The settings on record: product label specific activity of reconstituted IFN-β-1b/Betaseron® as IFN standard; FIG. 2A. The text has this: Based on the specific induction of the MxA gene by type I IFNs in cultured human cells (Von Wussow, P. et al. (1990) Eur. J. Immunol. 20:2015-2019; and Simon, A. et al. (1991) J. Interferon Res. 11:215-219), an immunochemiluminometric (“ICLA”) assay was developed by Files, J. G. et al. (1998) J. Interferon Res. 18:1019-1024. The ICLA assay, which is based on the procedure of Oh, S. K. et al. (1994) J. Immunol. Meth. 176:79-91, detects MXa protein in cell lysates using two non-competing anti-MxA monoclonal antibodies, one of which is conjugated with acridinium ester, which is detected in a luminometer. The MxA gene induction ICLA assay procedure used herein is described in detail in Files, J. G. et al. (1998) supra.

Take “IFN-β-1a: recombinant human IFN-β expressed in CHO cells, 166 amino acids, N-linked glycosylated (SEQ ID NO: 1) [reference compound]”: the “specific activity, fold higher than IFN-β-1b” value in data set [1] is on record as “approximately 10 fold”. Also, the specific activity in data set [2] (assay not stated) is 2 to 3×10^8 IU/mg; in the data set on MxA gene, 1.45 to 3.22×10^8 IU/mg. The “specific activity, fold greater as compared to IFN-β-1b” value in data set [2] (summary of Example 1) was around 10 fold.
